Measured values as given in US10239887B2, “Positive allosteric modulators of the muscarinic acetylcholine receptor M4” (Vanderbilt University, priority 2016, dated 2019).

Amino acid sequences for entries named in this document (tags omitted). Residues count along the entry.
UniProt G7PQB4, 1-479: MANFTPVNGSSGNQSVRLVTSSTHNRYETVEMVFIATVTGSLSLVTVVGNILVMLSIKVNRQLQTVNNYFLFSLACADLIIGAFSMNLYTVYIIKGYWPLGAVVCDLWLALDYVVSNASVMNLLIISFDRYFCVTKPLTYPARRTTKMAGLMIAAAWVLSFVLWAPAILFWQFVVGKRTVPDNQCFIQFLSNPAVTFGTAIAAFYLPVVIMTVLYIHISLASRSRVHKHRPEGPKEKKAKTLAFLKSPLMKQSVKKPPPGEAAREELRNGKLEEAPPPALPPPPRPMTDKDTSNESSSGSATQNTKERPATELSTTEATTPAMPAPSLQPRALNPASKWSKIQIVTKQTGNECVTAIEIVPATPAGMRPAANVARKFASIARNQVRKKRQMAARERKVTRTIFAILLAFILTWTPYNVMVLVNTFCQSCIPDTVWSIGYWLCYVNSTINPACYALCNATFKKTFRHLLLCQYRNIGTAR

Target: cynomolgus monkey M4 (Macaca fascicularis, UniProt G7PQB4)
Assay: mAChR M4 cell-based functional assay (calcium flux), cyno M4
Conditions: % ACh maximum at 30 μM

Compound: Cc1nnc2sc3c(NCc4ccc(C(C)(C)O)cc4)ncnc3c2c1C [Compound 76, 2-[4-[[(3,4-Dimethylpyrimido[4′,5′:4,5]thieno[2,3-c]pyridazin-8-yl)amino]methyl]phenyl]propan-2-ol]
- Emax: 86%
